The text below walks through data of patent US7375074B2, “Body weight gain inhibitor” (priority 2001, dated 2008).

The target of the test is T1, GPR7 (Homo sapiens, UniProt P48145).
T1 sequence (P48145 1-328): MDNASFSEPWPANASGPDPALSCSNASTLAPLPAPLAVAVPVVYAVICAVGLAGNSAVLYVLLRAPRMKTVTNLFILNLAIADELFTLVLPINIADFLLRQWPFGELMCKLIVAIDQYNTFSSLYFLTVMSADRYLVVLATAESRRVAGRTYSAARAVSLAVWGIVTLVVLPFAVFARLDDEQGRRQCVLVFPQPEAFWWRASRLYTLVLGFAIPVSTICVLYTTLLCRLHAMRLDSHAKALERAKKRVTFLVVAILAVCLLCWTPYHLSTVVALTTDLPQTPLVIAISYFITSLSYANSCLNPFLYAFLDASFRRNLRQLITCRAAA
The test is described as follows: Receptor binding using [Phe2,125I-Tyr10]-human GPR8 ligand (1-20), membrane fraction of GPR7 expressing CHO cells. The conditions noted are these: GPR7 expressing CHO cell membrane fraction 15 μg/ml, read-out: concentration of 50% inhibition (IC50) of binding. Details: expressed in transfected cells; host or cells: CHO dhfr- cells, plasmid pAKKO-Human GPR7; membrane fraction. The procedure: Using [Phe^2, ^125I-Tyr^10]-human GPR8 ligand (1-20) prepared as described in Example 4, the membrane fraction from GPR7 expressing CHO cells prepared by the method as described in Reference Example 82 and the cell membrane fraction from GPR8 expressing cells prepared by the method as described in Reference Example 6, a receptor binding assay was carried out.
Cell membrane fractions prepared from GPR7 expressing CHO cells and GPR8 expressing CHO cells, were diluted to various concentration with assay buffer (25 mM Tris-HCl, 5 mM EDTA, 0.05% CHAPS, 0.1% BSA, 0.5 mM PMSF, 1 μg/ml Pepstatin, 4 μg/ml E-64, 20 μg/ml Leupeptin, pH7.4), and 200 μl each of the diluent was dispensed into polypropilene test tube (Falcon 2053). […] After filtration, a radioactivity remaining on the filter was counted using γ-counter, and an amount of specific binding was estimated by subtracting an amount of non-specific binding from an amount of maximum binding.
The inhibition of binding for GPR7 receptor or GPR8 receptor in the test sample (the inhibition rate (%)) is represented by the ratio of the values obtained by subtracting a radioactivity (X) remaining on the filter in the case where the test sample and of [Phe^2, ^125I-Tyr^10]-human GPR8 ligand (1-20) were added from the maximum binding (TB) to the specific binding (SB) ((TB−X)/SB×100(%)). […]

Take `CSCC[C@H](NC(=O)[C@H](CC(C)C)NC(=O)[C@H](CC(C)C)NC(=O)CNC(=O)[C@H](C)NC(=O)[C@H](C)NC(=O)[C@H](CCCNC(=N)N)NC(=O)CNC(=O)[C@@H](NC(=O)[C@@H](NC(=O)[C@H](Cc1c[nH]cn1)NC(=O)[C@H](Cc1ccc(O)cc1)NC(=O)[C@H](CCCNC(=N)N)NC(=O)[C@@H]1CCCN1C(=O)[C@H](CO)NC(=O)[C@H](C)NC(=O)[C@@H](NC(=O)[C@H](Cc1c[nH]cn1)NC(=O)[C@H](CCCCN)NC(=O)[C@H](Cc1ccc(O)cc1)NC(=O)[C@@H](N)Cc1c[nH]c2ccccc12)C(C)C)[C@@H](C)O)C(C)C)C(=O)NCC(=O)N[C@@H](CC(C)C)C(=O)O` [hGPR8L(1-23)]: the IC50 was determined as 0.13 nM.
